Laboratory results from ChEMBL document CHEMBL5034024, “Peptidylarginine deiminases 4 as a promising target in drug discovery” (Eur J Med Chem, 2021).

Target: Protein-arginine deiminase type-4 (Homo sapiens, UniProt Q9UM07)
Test: Inhibition of PAD4 (unknown origin) by Fluopol-ABPP HTS assay

- IC50: 240 nM
Compound: NC1=CC(=O)c2ccc(-c3cccc(C(=O)O)n3)nc2C1=O
